{
  "sequences": {"note": "Chains of the proteins cited; added tags and fusions are not shown. Lines headed by an entry give the natural chain unless they say otherwise; changes in a name come on top.", "UniProt P41144": "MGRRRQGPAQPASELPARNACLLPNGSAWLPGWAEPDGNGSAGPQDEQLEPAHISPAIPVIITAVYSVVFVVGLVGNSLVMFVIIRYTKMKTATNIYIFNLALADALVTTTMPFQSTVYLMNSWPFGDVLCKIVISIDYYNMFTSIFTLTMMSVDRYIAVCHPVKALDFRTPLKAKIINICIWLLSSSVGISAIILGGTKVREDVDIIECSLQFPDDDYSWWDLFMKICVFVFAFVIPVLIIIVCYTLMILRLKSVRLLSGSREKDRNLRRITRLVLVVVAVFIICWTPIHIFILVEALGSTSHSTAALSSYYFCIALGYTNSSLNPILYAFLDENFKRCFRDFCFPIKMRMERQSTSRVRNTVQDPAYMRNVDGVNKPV"},
  "source": "ChEMBL document CHEMBL2417403",
  "about": "“N-terminal guanidinylation of TIPP (Tyr-Tic-Phe-Phe) peptides results in major changes of the opioid activity profile” (Bioorg Med Chem Lett, 2013)",
  "biological_target": "Kappa-type opioid receptor (Cavia porcellus, UniProt P41144)",
  "test": "Displacement of [3H]U69,593 from kappa opioid receptor in guinea pig brain membranes",
  "format": "cell membranes, Membrane",
  "method_in_brief": "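Competitive displacement of tritiated radioligands, with affinities reported as Ki. Mu sites were labelled with [³H]DAMGO and delta sites with [³H]DSLET, both on rat brain membranes. Kappa sites were labelled with [³H]U69,593 on guinea pig brain membranes.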",
  "data": [
    {"smiles": "N[C@@H](Cc1ccc(O)cc1)C(=O)N1Cc2ccccc2C[C@H]1CN[C@@H](Cc1ccccc1)C(=O)N[C@@H](Cc1ccccc1)C(=O)O", "values": [
      {"measurement": "Ki", "result": "> 1000", "unit": "nM"}
    ]}
  ]
}
